Source: BindingDB's records for doi:10.1016/0896-6273(93)90149-l (The Scripps Research Institute, 1993)

Amino acid sequences for entries named in this document (tags omitted).
UniProt P19327, whole entry: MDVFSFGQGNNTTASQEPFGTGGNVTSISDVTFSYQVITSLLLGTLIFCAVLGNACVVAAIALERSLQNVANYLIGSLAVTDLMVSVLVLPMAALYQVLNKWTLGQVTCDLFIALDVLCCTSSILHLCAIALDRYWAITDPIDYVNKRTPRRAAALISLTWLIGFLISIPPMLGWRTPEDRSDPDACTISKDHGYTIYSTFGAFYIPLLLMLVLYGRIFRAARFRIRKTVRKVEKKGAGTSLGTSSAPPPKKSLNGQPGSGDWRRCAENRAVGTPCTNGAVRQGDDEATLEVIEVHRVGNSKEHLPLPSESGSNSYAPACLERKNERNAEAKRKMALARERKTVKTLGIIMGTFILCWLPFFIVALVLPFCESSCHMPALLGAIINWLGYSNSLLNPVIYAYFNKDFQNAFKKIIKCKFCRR

Molecular target: 5-hydroxytryptamine receptor 1A (Rattus norvegicus, UniProt P19327)

In the case of `NCCc1c[nH]c2ccc(O)cc12` [[3H]-5-HT], the Ki is reported as 134 nM.
